Consider one molecule from PubChem BioAssay (NCATS).

Chains of the proteins cited; added tags and fusions are not shown.
UniProt O15648, whole entry: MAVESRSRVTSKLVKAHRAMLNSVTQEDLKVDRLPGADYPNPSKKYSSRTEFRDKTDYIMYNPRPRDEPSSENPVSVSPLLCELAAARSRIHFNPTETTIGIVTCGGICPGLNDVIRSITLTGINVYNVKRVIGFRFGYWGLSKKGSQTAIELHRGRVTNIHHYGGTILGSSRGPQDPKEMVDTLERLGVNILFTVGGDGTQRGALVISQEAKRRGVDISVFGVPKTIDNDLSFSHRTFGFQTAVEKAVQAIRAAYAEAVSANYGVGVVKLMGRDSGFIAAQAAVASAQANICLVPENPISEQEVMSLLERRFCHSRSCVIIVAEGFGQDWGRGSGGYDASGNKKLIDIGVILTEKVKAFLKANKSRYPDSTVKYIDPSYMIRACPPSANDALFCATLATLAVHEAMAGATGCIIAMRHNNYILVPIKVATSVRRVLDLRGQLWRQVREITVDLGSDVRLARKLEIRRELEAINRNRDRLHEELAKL

For experiment [1], the target named is ATP-dependent 6-phosphofructokinase (Trypanosoma brucei brucei) (UniProt O15648). Kind of experiment: qHTS Assay to Find Inhibitors of T. brucei phosphofructokinase: hit validation (AID 492961).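 Further: luminescence reports ADP formed as PFK phosphorylates fructose-6-phosphate with ATP; on the % scale 0 is the no-effect control and ±100 the full control effect.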 As to conditions: T. brucei PFK, ADP-Glo luminescence; at 51.4 µM (top of the series). The method, boiled down:
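Compounds titrated; %activity normalized to 0x and 1x enzyme controls, curve-fitted. Readout: ADP-Glo luminescence after 45 min room-temperature reaction of 1.25 nM PFK, 0.1 mM ATP, 0.5 mM F6P, pH 8.0.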
A general note: In qHTS, concentration-response curves come from the screen itself.

The subject of another experiment is 3D7. Briefly: qHTS profiling for inhibitors of Plasmodium falciparum proliferation (AID 504749). Further: nearly all actives have a fitted effect of over 60% in size. Further: potency means the concentration at half of the fitted maximal effect.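 On activity, negative = inhibition: 0% = DMSO vehicle and full inhibition = artemisinin control.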 The conditions noted are these: P. falciparum in erythrocytes, SYBR Green DNA, 72 h; at 28.7 µM (top of the series). In a few lines:
(§1)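 Readout was DNA-dye fluorescence from lysed cultures, ex 485/em 535 nm. Parasitized red cells had grown 72 h with compound; data scaled between 0.29 uM artemisinin and DMSO wells and corrected using vehicle-only plates.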

A further experiment concerns 7G8. The experiment is described as above. As to conditions: P. falciparum in erythrocytes, SYBR Green DNA, 72 h. The method, boiled down:
as §1

The next experiment deals with AA1029. Described as above. The conditions noted are these: P. falciparum in erythrocytes, SYBR Green DNA, 72 h. In a few lines:
as §1

In another experiment the test system is CP237. The description is as above. As to conditions: P. falciparum in erythrocytes, SYBR Green DNA, 72 h. The method, boiled down: as §1
For the next experiment, the system named is CP256. The experiment is described as above. The conditions noted are these: P. falciparum in erythrocytes, SYBR Green DNA, 72 h. The method, boiled down: as §1
A further experiment deals with CP260. The experiment is described as above. The conditions noted are these: P. falciparum in erythrocytes, SYBR Green DNA, 72 h. In a few lines:
as §1

For the next experiment, the system named is CP262. The experiment is described as above. The conditions noted are these: P. falciparum in erythrocytes, SYBR Green DNA, 72 h; at 28.7 µM (top of the series). In a few lines:
as §1

A further experiment deals with DIV14. The experiment is described as above. As to conditions: P. falciparum in erythrocytes, SYBR Green DNA, 72 h. In a few lines: as §1
The test system of another experiment is ECU. The description is as above. The conditions noted are these: P. falciparum in erythrocytes, SYBR Green DNA, 72 h; at 28.7 µM (top of the series). The method, boiled down: as §1
For another experiment, the system named is FAB9. The description is as above. The conditions noted are these: P. falciparum in erythrocytes, SYBR Green DNA, 72 h; at 28.7 µM (top of the series). In a few lines:
as §1

The subject of another experiment is JCK. Described as above. The conditions noted are these: P. falciparum in erythrocytes, SYBR Green DNA, 72 h; at 28.7 µM (top of the series). In a few lines:
as §1

Another experiment relates to P93_24. Described as above. As to conditions: P. falciparum in erythrocytes, SYBR Green DNA, 72 h. In a few lines: as §1
The next experiment deals with P94_40. The experiment is described as above. As to conditions: P. falciparum in erythrocytes, SYBR Green DNA, 72 h. In a few lines:
as §1

The next experiment has as its system PC15. The description is as above. The conditions noted are these: P. falciparum in erythrocytes, SYBR Green DNA, 72 h; at 28.7 µM (top of the series). In a few lines:
as §1

In another experiment the test system is PC49. Described as above. The conditions noted are these: P. falciparum in erythrocytes, SYBR Green DNA, 72 h; at 28.7 µM (top of the series). The method, boiled down:
as §1

The test system of another experiment is TAB109. Described as above. As to conditions: P. falciparum in erythrocytes, SYBR Green DNA, 72 h. In a few lines:
as §1

The subject of a further experiment is W2. Described as above. The conditions noted are these: P. falciparum in erythrocytes, SYBR Green DNA, 72 h. In a few lines: as §1

The entries are a selection whose mix differs from that of the whole data set. Some of these compounds have results that are not shown, active ones among them. Records with an inconclusive call do not appear. Active and inactive are the calls of the source. The call rests on the fitted dose curve; in most records, active means well fitted curve in the direction sought with a large enough effect; inconclusive means small, poorly fitted or top-dose-only effect, or another doubt; inactive means no such curve, though single readings can be large; an effect the other way counts as inactive or inconclusive.

For `CN1CCCC(OC(=O)C(O)(c2ccccc2)c2ccccc2)C1` (stereo not drawn), the activity change, negative = inhibition in experiment [1] is inactive: 0%. Moreover, the activity, negative = inhibition with 3D7 was inactive: -29.5%; with CP262, inactive: 0%; with ECU, inactive: -27.7%; in the experiment on FAB9 it was inactive: -18.5%; in the experiment with JCK, inactive: -17.4%; in the experiment on PC15, inactive: -16.6%. The activity, negative = inhibition in the experiment on PC49 was inactive: -24.7%. In addition, the Potency was active: 4.47 µM in the experiment on 7G8; active: 3.55 µM in the experiment on AA1029; active: 8.91 µM in the experiment on CP237; active: 5.62 µM in the experiment with CP256; active: 10 µM in the experiment with CP260; active: 7.57 µM in the experiment with DIV14. Further, the Potency is active: 3.98 µM in the experiment with P93_24, active: 12.6 µM with P94_40, active: 2.51 µM with TAB109 and active: 3.79 µM in the experiment with W2.
